# Test results published in PubChem BioAssay AID624172 (National Center for Advancing Translational Sciences (NCATS), 2012).
# The chains behind the UniProt entries cited, without tags or fusion partners.
# UniProt P43220, whole entry, looked up: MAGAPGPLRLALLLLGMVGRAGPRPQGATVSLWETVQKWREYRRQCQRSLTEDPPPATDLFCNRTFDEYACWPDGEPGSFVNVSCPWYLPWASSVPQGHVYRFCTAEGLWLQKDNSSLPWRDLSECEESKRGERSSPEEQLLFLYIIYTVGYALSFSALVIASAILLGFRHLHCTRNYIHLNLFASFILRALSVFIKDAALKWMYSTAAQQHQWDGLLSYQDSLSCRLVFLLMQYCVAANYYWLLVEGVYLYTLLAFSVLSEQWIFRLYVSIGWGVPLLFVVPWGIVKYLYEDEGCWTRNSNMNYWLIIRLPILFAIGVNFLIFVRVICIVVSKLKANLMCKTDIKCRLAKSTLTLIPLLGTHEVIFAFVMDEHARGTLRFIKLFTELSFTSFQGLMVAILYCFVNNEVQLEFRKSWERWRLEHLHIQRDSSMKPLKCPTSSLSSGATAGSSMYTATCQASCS
# Several values for one entry are separate records, joined by “and”; a condition that tells them apart may be missing. Identical values can stand only once. This is a selection; strong and weak results do not stand in their true shares. Activity calls are given as the source filed them. Calls come from the whole dose curve; as a rule, active = well fitted activation curve with a large enough effect; inconclusive = small, poorly fitted or top-dose-only effect; inactive = no such curve, though single readings can be large or run the other way.
# Biological target: Glucagon-like peptide 1 receptor (Homo sapiens) (UniProt P43220)
# Test: qHTS of GLP-1 Receptor Agonists; note: % of control where 0% means no effect
# Details: HEK293 GLP-1R CRE-luciferase, luminescence, 4-6 h, cells express a hypersensitive GLP-1R form; at 45.6 µM (top of the series) unless noted
# Text: The overall goal of this project was to develop a novel assay for discovering small molecule ligands for class B1 G protein-coupled receptors (GPCRs). Very few agonists (or inverse agonists) with generally weak activity for this entire group of physiologically important receptors are known to date. To establish proof-of-principle that this critical bottleneck can be overcome with a suitable screening approach, our studies focused on the class B1 receptor for glucagon-like peptide-1 (GLP-1R), a potential therapeutic target for diabetes and neurodegenerative disease.
# The assay was developed in a "mix and measure" format using a cell-based functional readout. Toward this goal, stably transfected HEK293 cell clones were established that co-express (i) a cAMP-responsive luciferase reporter gene, and (ii) GLP-1Rs that upon ligand interaction either stimulate (agonists) or inhibit (inverse agonists) luciferase activity. In different cell lines to be used for screening, expressed GLP-1Rs are specifically optimized for high sensitivity detection of either weak agonists (hypersensitive receptor) or inverse agonists (constitutively active receptor mutant). In addition, control cell lines were developed that express either the cAMP-responsive reporter gene without recombinant GLP-1Rs (enabling initial exclusion of GLP-1R independent effects of candidate probes), or the reporter gene together with wild type GLP-1Rs (for confirmation of probe activity at this receptor), or the reporter gene in combination with the constitutively active orphan receptor GPR119 (enabling initial exclusion of GLP-1R independent inhibitory effects of candidate inverse agonists).
# To that end, this assay was optimized for 1536-well format and screened against the MLSMR.
# NIH Molecular Libraries Probe Production Network [MLPCN]
# NIH Chemical Genomics Center [NCGC]
# PI Name: Martin Beinborn, Tufts Medical Center
# In a white solid 1536-well plate, 6 uL of cells are dispensed in DMEM without phenol red, 10% Nu serum, and 1% pen-strep medium. The plates are then incubated for 12 hours at 37 deg C at 5% CO2 before 23 nL of compounds are added. After a 4-6 hr incubation at37 deg C and 5% CO2, 3 uL of detection reagent are added and after a 12 min incubation at RT, a luminescent read is obtained on the ViewLux.
row,SMILES,activation
1,CC(C)c1nc(Nc2ccccc2)n(P(=O)(N(C)C)N(C)C)n1,inactive: -1.8%
2,c1cc(-c2nn[nH]n2)ccc1-c1nn[nH]n1,inactive: 0.66%
3,CC1CCN(C(=O)Oc2c(Cl)cc(Cl)c3cccnc23)CC1,inactive: 15.1%
4,COc1ccc(C2=NCC(CBr)S2)cc1 (stereo not drawn),inactive: 0.041%
5,CC(=O)N1C2C3N(C(C)=O)C1C1N(C(C)=O)C(C(N1C(C)=O)N3C(C)=O)N2C(C)=O,inactive: -2.02%
6,O=[N+]([O-])c1cccc2n[nH]nc12,inactive: 2.22%
7,O=[N+]([O-])c1cc([N+](=O)[O-])c(CCNc2ccccc2)c([N+](=O)[O-])c1,inactive: 7.1%
8,CCc1nc2c(n1)c1c(non1O)c1c2no[n+]1[O-],inactive: 3.43%
9,Cc1ccc(NP(=O)(Oc2ccccc2)Oc2ccccc2)nc1,inactive: 8.88%
10,CC(C)(C)C(=O)NC(Sc1ccncn1)C(Cl)(Cl)Cl (stereo not drawn),inactive: -5.1%
11,O=[N+]([O-])c1ncn(CCn2ncnc2[N+](=O)[O-])n1,inactive: -5.66%
12,O=[N+]([O-])c1cccc(NC2=NCC(CBr)S2)c1 (stereo not drawn),inactive: -3%
13,COC(=O)C1(C)COP(=O)(Nc2ccccc2)OC1 (stereo not drawn),inactive: -2.19%
14,O=C(O)CNc1ccc([As](=O)(O)O)cc1,inactive: -2.59%
15,O=P1(N(CCCl)CCCl)OCCCS1 (stereo not drawn),inactive: -0.362%
16,O=C(Nc1cc([As](=O)(O)O)ccc1O)c1ccccc1,inactive: -0.119%
17,CC(=O)NC(SC(=S)N(C)C)C(Cl)(Cl)Cl (stereo not drawn),inactive: -1.5%
18,O=[N+]([O-])c1ncn(CCn2cnc([N+](=O)[O-])n2)n1,inactive: 1.6%
19,O=[N+]([O-])c1ccc(O)c(/C=N/Nc2ccc([N+](=O)[O-])cc2[N+](=O)[O-])c1,inactive: 7.69%
20,O=[As](O)(c1ccccc1)c1ccc(O)cc1,inactive: 7.29%
21,Nc1ccc([As](=O)(O)c2ccc([N+](=O)[O-])cc2)cc1,inactive: -0.439%

row,SMILES,activation
1,C(Cc1nn[nH]n1)Cc1nn[nH]n1,inactive: -12.7%
2,O=C(OC1CN2CCC1CC2)c1cccc(Cl)c1 (stereo not drawn),inactive: -2.01%
3,Nc1ccc(CCCCOc2ccccc2)cc1,inactive: 21.1%
4,COc1ccc(N)c([N+](=O)[O-])c1[N+](=O)[O-],inactive: 12.5%
5,CN(C)C1(CNC(=O)c2ccc(Cl)c(S(N)(=O)=O)c2)CCCCC1,inactive: 3.52%
6,O=P(Nc1ccccn1)(c1ccc(Br)cc1)c1ccc(Br)cc1,inactive: 3.69%
7,C[C@H]1OP(=O)(Oc2ccccc2)[C@H](O)[C@H](O)[C@H]1N=[N+]=[N-] (stereo partly drawn),inactive: 4.57%
8,O=P(Nc1nc2ccccc2s1)(c1ccccc1)c1ccccc1,inactive: 10.4%
9,CN(C(=O)Cc1ccccc1)[C@H]1CC[C@@]2(CCCO2)C[C@@H]1N1CCCC1,inactive: 6.3%
10,Cc1cc([N+](=O)[O-])cc([N+](=O)[O-])c1O,inactive: -1.23% [at 96 µM]
11,O=P(Nc1nccs1)(c1ccccc1)c1ccccc1,inactive: 0.45%
12,CC(C)C(=O)NC(Sc1ccccc1)C(Cl)(Cl)Cl (stereo not drawn),inactive: 1.44%
13,c1nnnn1CCn1cnnn1,inactive: -0.4%
14,COC(=O)C1(C)COP(=O)(NCc2ccccc2)OC1 (stereo not drawn),inactive: -8.46%
15,N#C/C(=C\c1ccc(N(CCBr)CCBr)cc1)C(N)=O,inactive: 13.9%
16,CC(=O)c1ccc(N2CC2c2ccncc2)cc1 (stereo not drawn),inactive: 5.56%
17,C[C@@H]1C=CCP(=O)(Oc2ccccc2)O1 (stereo partly drawn),inactive: -2.71%
18,C[C@H]1OP(=O)(Oc2ccccc2)C[C@@H]2O[C@@H]21 (stereo partly drawn),inactive: -1.43%
19,Cc1ccccc1CN(C)C(=O)COC(=O)C(O)(c1ccccc1)c1ccccc1,inactive: -1.04%
20,CC(=O)Nc1ccc(Oc2c([N+](=O)[O-])cc([N+](=O)[O-])cc2[N+](=O)[O-])cc1,inactive: -0.187%
21,CC(=O)Nc1ccc([As](=O)(O)O)c(O)c1,inactive: -0.172%

row,SMILES,activation
1,CCOc1ccc(C2=NCC(CBr)S2)cc1 (stereo not drawn),inactive: -1.38%
2,O=P1(Nc2nc3ccc(Cl)cc3s2)COc2ccccc2O1 (stereo not drawn),inactive: 10.3%
3,CCc1cc(O)c([N+](=O)[O-])c(C)c1[N+](=O)[O-],inactive: 0.127%
4,CC(C)(C)C(=O)NC(Sc1ccccc1)C(Cl)(Cl)Cl (stereo not drawn),inactive: 12.8%
5,CC(=O)NC(SC(=S)N(CC(C)C)CC(C)C)C(Cl)(Cl)Cl (stereo not drawn),inactive: -2.81%
6,Cc1ccc(OP(=O)(Nc2ccccn2)Oc2ccc(C)cc2)cc1,inactive: 17.2%
7,COC(=O)c1cc2c(s1)N=C(c1ccccc1)N(C)P2(=O)N1CCOCC1 (stereo not drawn),inactive: -13.6%
8,CCC(=O)N1C2C3N(C(=O)CC)C1C1N(C(=O)CC)C(C(N1C(=O)CC)N3C(=O)CC)N2C(=O)CC,inactive: -11.4%
9,O=C(OC1CN2CCC1CC2)c1ccccc1 (stereo not drawn),inactive: 2.67% and inactive: -2.02%
10,CN(C)C(=O)Oc1noc2ccccc12,inactive: 5.58%
11,O=c1c2cc([N+](=O)[O-])ccc2[nH]c2c([N+](=O)[O-])cc([N+](=O)[O-])cc12,inactive: -3.6%
12,Cc1ccccc1OP(=O)(Nc1ccccn1)Oc1ccccc1C,inactive: 0.155%
13,CC(NC(=O)COC(=O)C(O)(c1ccccc1)c1ccccc1)c1ccccc1 (stereo not drawn),inactive: -0.25%
14,O=C(NC1CCS(=O)(=O)C1)NP(=S)(Oc1ccccc1)Oc1ccccc1 (stereo not drawn),inactive: 0.166%
15,CCNC(=S)/N=C(\N)N[N+](=O)[O-],inactive: 0.0389%
16,Cc1ccc(NP(=O)(Oc2cccc(C)c2)Oc2cccc(C)c2)nc1,inactive: 7.26%
17,c1ccc(-c2nn[nH]n2)c(-c2nn[nH]n2)c1,inactive: -0.307%
18,O=P1(N(CCCl)CCCl)OCCC2CCCCN21 (stereo not drawn),inactive: -0.155%
19,NC(=O)Nc1ccc([As](=O)(O)O)cc1,inactive: 1.97% and inactive: -2.04%
20,CN(C(=O)Cc1ccc(Cl)c(Cl)c1)[C@H]1CC[C@@]2(CCCO2)C[C@@H]1N1CCCC1,inactive: 5.11%
21,CN(C)C(=O)c1cc([N+](=O)[O-])cc2c1-c1c(cc([N+](=O)[O-])cc1[N+](=O)[O-])C2=O,inactive: 8.11%
